Data as given in patent US20040152735A1, “NO-synthase inhibitors comprising N,N'-bis(2-pyridyl)methyl-N,N'-bis(3,4,5-trimethoxybenzyl) ethylenediamine” (SOCIETE L'OREAL, S.A., priority 2001, published 2004).

The chains behind the UniProt entries cited, without tags or fusion partners.
UniProt P35228, whole entry, species assumed: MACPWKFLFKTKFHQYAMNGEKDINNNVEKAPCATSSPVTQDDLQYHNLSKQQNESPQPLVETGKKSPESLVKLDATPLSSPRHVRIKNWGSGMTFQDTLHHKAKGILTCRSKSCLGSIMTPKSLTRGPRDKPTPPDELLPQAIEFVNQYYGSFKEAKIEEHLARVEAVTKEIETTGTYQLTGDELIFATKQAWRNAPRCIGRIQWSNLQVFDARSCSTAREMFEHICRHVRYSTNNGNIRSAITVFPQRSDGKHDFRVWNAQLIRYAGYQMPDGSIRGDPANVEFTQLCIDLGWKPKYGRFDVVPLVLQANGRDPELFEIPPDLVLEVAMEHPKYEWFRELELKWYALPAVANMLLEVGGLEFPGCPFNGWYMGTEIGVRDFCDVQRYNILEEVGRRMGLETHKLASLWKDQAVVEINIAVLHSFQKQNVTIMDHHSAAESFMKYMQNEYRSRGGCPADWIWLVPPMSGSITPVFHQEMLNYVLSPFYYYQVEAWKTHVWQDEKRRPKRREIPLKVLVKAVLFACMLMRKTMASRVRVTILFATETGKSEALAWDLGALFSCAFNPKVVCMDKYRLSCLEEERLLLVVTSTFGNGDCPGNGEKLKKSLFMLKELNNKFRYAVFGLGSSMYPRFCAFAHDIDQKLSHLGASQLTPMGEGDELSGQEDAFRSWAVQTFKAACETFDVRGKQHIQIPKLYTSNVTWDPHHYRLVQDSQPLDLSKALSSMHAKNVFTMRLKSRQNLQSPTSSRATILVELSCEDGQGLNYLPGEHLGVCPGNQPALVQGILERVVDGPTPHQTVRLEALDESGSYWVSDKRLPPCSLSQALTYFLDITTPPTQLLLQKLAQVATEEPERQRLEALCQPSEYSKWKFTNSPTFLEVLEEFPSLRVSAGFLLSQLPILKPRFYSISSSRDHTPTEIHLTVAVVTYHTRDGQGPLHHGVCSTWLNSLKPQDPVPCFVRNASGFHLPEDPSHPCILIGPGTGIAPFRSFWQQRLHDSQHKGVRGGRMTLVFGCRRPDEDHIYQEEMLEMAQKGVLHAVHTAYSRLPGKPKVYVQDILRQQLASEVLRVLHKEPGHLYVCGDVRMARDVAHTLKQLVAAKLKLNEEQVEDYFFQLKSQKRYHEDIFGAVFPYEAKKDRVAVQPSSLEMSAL

Target: T1, inducible NO-synthase (NO-synthase 2) (Homo sapiens, UniProt P35228)
T1 construct: positive control (induction of the enzyme): mixtures of interferon-(1000 U/ml) and of interleukin 1-(100 U/ml); endogenous in cells; 267(30), 21277-21280, 1992
Experiment: Inhibition of inducible NO-synthase (test of Heck et al.): nitrite/nitrate measured after stimulating NO-synthase 2 with interferon and interleukin 1
Format: cell-based
Settings: control compound at 200 μm; nitrites and nitrates after induction
Protocol: The activity of N,N′-bis(2-pyridyl)methyl-N,N′-bis(3,4,5-trimethoxybenzyl)ethylenediamine on inducible NO-synthase was evaluated in the test described by Heck et al., (J.B.C., Vol. 267, No. 30, 21277-21280, Oct. 25, 1992).
The object of this test is to show the reduction in the concentration of nitrate and nitrite, ultimately, after stimulating NO-synthase 2.
The following controls were introduced into the tests:
A: positive control (induction of the enzyme): mixtures of interferon-(1000 U/ml) and of interleukin 1-(100 U/ml);
To determine the activity of the test product, the amount of stable NO reaction products (nitrites and nitrates) is measured using the “nitric calorimetric assay” kit marketed by Boehringer under the reference 1756.28.
N,N′-bis(2-pyridyl)methyl-N,N′-bis(3,4,5-trimethoxybenzyl) ethylenediamine was tested at concentrations of 10 μM, 50 μM and 100 μM in ethanol.

| SMILES | % Inhibition |
| --- | --- |
| CNC(=N)NCCC[C@H](N)C(=O)O [B, N^G-monomethyl-L-arginine (L form), reference compound] | 100% |
| CNC(=N)NCCC[C@H](N)C(=O)O [C, N^G-monomethyl-L-arginine (D form), reference compound] | 0% |
